Measurements as given in PMC6709783, “Structural Basis for Allosteric Ligand Recognition in the Human CC Chemokine Receptor 7” (Cell, 2019).

molecular target: T1, human CCR7 (Homo sapiens, UniProt P32248, L145W); assay: Thermofluor stability assay (thermal shift, CPM dye) with purified CCR7-L145W; assay type: binding; details: known chemokine receptor ligands tested for selectivity of the pocket, Figure 4B
T1 construct: enhanced green fluorescent protein (eGFP) (C); decahistidine-tag (His10) (C); made in house; host or cells: Sf9 insect cells (baculovirus)
T1 sequence (P32248 25-348 L145W): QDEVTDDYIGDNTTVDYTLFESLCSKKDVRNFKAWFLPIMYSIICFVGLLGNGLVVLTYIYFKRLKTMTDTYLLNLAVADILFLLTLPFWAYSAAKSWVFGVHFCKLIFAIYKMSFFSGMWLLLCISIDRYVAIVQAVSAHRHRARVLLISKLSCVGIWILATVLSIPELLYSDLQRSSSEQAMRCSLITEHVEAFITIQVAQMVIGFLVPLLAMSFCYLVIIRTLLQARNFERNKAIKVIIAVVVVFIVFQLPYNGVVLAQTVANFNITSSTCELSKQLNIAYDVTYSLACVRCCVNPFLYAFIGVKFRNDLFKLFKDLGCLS
Method: The plate was sealed and incubated for 30 min on ice. A 1:100 (v/v) working solution of the CPM (N-[4-(7-diethylamino-4-methyl-3-coumarinyl)phenyl]maleimide) dye stock (3 mg/mL in DMSO) was prepared and 5.14 μL of this solution were added to each well and mixed thoroughly. Out of each well, 3 × 20 μL were distributed into 0.1 mL Rotor-Gene Q tubes (QIAGEN). […] The gain set was determined at the beginning of the run. The melting temperature (Tm) was calculated from the point of inflection.
All liquid-handling steps were performed using a Bravo automated liquid handling platform and a 96LT head.
Melting temperatures (Tm) in the thermofluor stability assays were calculated and analyzed by automated scripts based on a fit to the Boltzmann equation. Details on significance levels and number of experiments are given in the corresponding figure legends.

Compound | thermo-stabilizing effect on CCR7 (in words)
CC(=O)C1=C(O)C(=O)N(c2ccc(Cl)cc2F)[C@@H]1C1CCCCC1 [CCR2-RA-[R]] | did not have a thermo-stabilizing effect on CCR7
Cc1c(F)cccc1NC(=O)Nc1ccc(Cl)c(S(=O)(=O)[C@H]2CCCNC2)c1O [Danirixin] | Neither did the CXCR2 antagonist Danirixin nor the CXCR1 and CXCR2 antagonist Reparixin stabilize CCR7
CC(C)(C)c1ccc(S(=O)(=O)Nc2ccc(Cl)cc2C(=O)c2cc[n+]([O-])cc2)cc1 [Vercirnon] | did not have a thermo-stabilizing effect on CCR7
